Data as given in doi:10.1101/2024.12.09.627393 (bioRxiv, 2024).

Amino acid sequences for entries named in this document (tags omitted). Residues count along the entry.
UniProt Q9BXF3, 424-538: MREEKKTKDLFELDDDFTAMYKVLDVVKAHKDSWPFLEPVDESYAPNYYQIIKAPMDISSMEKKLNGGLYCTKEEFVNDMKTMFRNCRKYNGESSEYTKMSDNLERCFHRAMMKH

Molecular target: T1, CECR2 bromodomain (Homo sapiens, UniProt Q9BXF3)
T1 construct: A construct encoding amino acids 424–538 of the human CECR2-BRD-containing protein; GST (N, cleaved yes); made in house; host or cells: E. coli BL21(DE3) pLysS
Test: Isothermal titration calorimetry, wild-type CECR2-BRD
Conditions: ITC, 5°C, 20 mM sodium phosphate pH 7.0, 150 mM NaCl, 1 mM TCEP, mean ± SD of triplicate, non-binding runs in duplicate

KD: No Binding
Substance: TYETFKSIMKK-NH2 [RelAK310 (305–315), unmodified RelA peptide residues 305–315, reference compound]
